Measurements published in paper doi:10.1101/2022.07.21.500659v1 (bioRxiv, 2022).

Molecular target: T1, human GLP-2r (Homo sapiens, UniProt O95838)
T1 sequence (O95838 1-553): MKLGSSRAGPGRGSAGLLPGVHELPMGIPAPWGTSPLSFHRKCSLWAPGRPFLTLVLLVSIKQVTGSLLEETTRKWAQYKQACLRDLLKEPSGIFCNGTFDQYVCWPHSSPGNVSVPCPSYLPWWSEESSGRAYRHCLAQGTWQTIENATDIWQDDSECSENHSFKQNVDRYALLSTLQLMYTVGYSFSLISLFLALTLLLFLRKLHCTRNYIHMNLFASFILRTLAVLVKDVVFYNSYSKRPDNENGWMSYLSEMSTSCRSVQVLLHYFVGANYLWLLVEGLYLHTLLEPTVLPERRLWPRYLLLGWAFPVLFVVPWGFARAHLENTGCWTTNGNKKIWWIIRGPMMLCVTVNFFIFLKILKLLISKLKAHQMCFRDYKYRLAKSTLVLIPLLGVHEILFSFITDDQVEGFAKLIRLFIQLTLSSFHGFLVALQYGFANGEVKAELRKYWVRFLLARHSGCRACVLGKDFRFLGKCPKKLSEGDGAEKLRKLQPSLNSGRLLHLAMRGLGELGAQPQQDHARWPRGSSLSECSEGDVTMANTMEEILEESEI
Assay: Receptor activation, cAMP FRET biosensor
Assay type: cell-based
Details: FRET ratio of analogue divided by FRET ratio of endogenous ligand

Q: `CC[C@H](C)[C@H](NC(=O)[C@H](CO)NC(=O)[C@H](Cc1ccc(O)cc1)NC(=O)[C@H](CC(=O)O)NC(=O)[C@H](CO)NC(=O)[C@@H](NC(=O)[C@H](Cc1ccccc1)NC(=O)[C@@H](NC(=O)CNC(=O)[C@H](CCC(=O)O)NC(=O)[C@H](C)NC(=O)[C@@H](N)Cc1ccc(O)cc1)[C@@H](C)O)[C@@H](C)CC)C(=O)N[C@@H](C)C(=O)N[C@@H](CCSC)C(=O)N[C@@H](CC(=O)O)C(=O)N[C@@H](CCCCN)C(=O)N[C@H](C(=O)N[C@@H](Cc1c[nH]cn1)C(=O)N[C@@H](CCC(N)=O)C(=O)N[C@@H](CCC(N)=O)C(=O)N[C@@H](CC(=O)O)C(=O)N[C@@H](Cc1ccccc1)C(=O)N[C@H](C(=O)N[C@@H](CC(N)=O)C(=O)N[C@@H](Cc1c[nH]c2ccccc12)C(=O)N[C@@H](CC(C)C)C(=O)N[C@@H](CC(C)C)C(=O)N[C@@H](C)C(=O)N[C@@H](CCC(N)=O)C(=O)N[C@@H](CCCCN)C(=O)O)C(C)C)[C@@H](C)CC` [GIP1-30] was tested. Which “Human GLP-2r FRET ratio fold change vs. GLP-2” value did it give?
A: 0.63
